From ChEMBL document CHEMBL1138080, “Design and synthesis of novel 2-amino-5-hydroxyindole derivatives that inhibit human 5-lipoxygenase” (J Med Chem, 2006) come the findings set out here.

The target in test [1] is T1, Polyunsaturated fatty acid 5-lipoxygenase (Homo sapiens) (UniProt P09917).
T1 sequence (whole entry): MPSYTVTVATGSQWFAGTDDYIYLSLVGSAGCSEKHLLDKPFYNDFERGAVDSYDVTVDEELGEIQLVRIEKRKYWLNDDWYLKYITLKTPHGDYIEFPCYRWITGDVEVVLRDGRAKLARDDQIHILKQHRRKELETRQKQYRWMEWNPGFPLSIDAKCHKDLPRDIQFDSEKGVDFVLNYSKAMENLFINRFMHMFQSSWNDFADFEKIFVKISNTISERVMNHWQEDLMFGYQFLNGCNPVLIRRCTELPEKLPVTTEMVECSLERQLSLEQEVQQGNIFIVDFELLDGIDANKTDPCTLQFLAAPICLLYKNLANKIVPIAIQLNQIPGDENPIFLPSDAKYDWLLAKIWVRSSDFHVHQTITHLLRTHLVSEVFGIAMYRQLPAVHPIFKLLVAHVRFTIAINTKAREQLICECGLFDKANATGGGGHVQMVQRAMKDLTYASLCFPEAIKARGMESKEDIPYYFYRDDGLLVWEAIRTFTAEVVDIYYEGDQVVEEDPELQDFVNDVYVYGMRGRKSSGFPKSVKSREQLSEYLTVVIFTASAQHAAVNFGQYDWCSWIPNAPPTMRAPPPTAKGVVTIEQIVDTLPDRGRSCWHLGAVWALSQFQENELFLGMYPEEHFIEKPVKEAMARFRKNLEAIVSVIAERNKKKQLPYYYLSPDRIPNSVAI
As to the kind of experiment: Inhibition of 5-LOX at 10 uM. Summed up: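 5-LO was human recombinant, expressed in E. coli JM 109 (pT3-5LO). Lysis, ammonium sulfate precipitation and a 100000g spin gave the S100 supernatant used as enzyme source. The assay contained 1 mM ATP and test compound or DMSO vehicle, and the enzyme was incubated with 20 µM arachidonic acid. The screen used 10 µM, with concentration-response for IC50.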

The target of test [2] is T1, Polyunsaturated fatty acid 5-lipoxygenase (Homo sapiens). As to the kind of experiment: Inhibition of 5-LOX in A-23187-stimulated […] at 10 uM. Summed up: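 Freshly isolated human PMNL (10^7 in 1 mL PBS with 1 mg/mL glucose and 1 mM CaCl2) were preincubated with compound at 37 °C. They were then stimulated with 2.5 µM ionophore A23187 for 10 min at 37 °C and stopped with methanol, with prostaglandin B1 added as standard. 5-LO products were measured as mean ± SE, n = 3-4 (10 µM screen or IC50).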

As usually defined, the inhibition is the share of the control response that was lost under treatment. A higher inhibition goes with strong suppression. Regarding `CCOC(=O)c1c(Nc2cccc(Cl)c2)[nH]c2ccc(O)cc12`, the inhibition in test [1] was found to be 97%; in test [2], 90%.
